## Permeability data for macrocyclic peptides

Data: CycPeptMPDB; original report Townsend et al. 2020, doi:10.26434/chemrxiv.13335941.v1.

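Conditions beyond the assay type are not listed; see the original paper. The list need not hold all peptides of the study. Entries at the database's floor value (log10 P of -10) are not listed.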

PAMPA is the parallel artificial membrane permeability assay, which has no cells and reads passive diffusion. Permeability is in 10^-6 cm/s, converted from the database's log10 values; higher is more permeable.

{"smiles": "CC(C)C[C@H]1C(=O)N2CCC[C@H]2C(=O)N(Cc2ccccc2)CC(=O)N[C@@H](Cc2ccccc2)C(=O)N2CCC[C@H]2C(=O)N(C)[C@@H](C)C(=O)N(Cc2ccccc2)CC(=O)N1C", "PAMPA (10^-6 cm/s)": "2"}
{"smiles": "CC(C)C[C@@H]1NC(=O)[C@@H]2CCCN2C(=O)[C@@H](CC(C)C)N(C)C(=O)CN(Cc2ccccc2)C(=O)C[C@H](Cc2ccccc2)NC(=O)[C@H]2CCCN2C(=O)[C@H](Cc2ccccc2)NC1=O", "PAMPA (10^-6 cm/s)": "0.5"}
{"smiles": "CC(C)C[C@H]1NC(=O)[C@@H]2CCCN2C(=O)C[C@H](Cc2ccccc2)NC(=O)CN(Cc2ccccc2)C(=O)[C@@H](C)N(C)C(=O)[C@@H]2CCCN2C(=O)[C@H](Cc2ccccc2)NC1=O", "PAMPA (10^-6 cm/s)": "0.15"}
{"smiles": "CC(C)C[C@H]1NC(=O)C[C@H](Cc2ccccc2)NC(=O)[C@H]2CCCN2C(=O)[C@H](Cc2ccccc2)NC(=O)CN(Cc2ccccc2)C(=O)[C@@H]2CCCN2C(=O)CN(Cc2ccccc2)C1=O", "PAMPA (10^-6 cm/s)": "1.4"}
{"smiles": "CC(C)C[C@@H]1C(=O)N(Cc2ccccc2)CC(=O)N2CCC[C@@H]2C(=O)N(Cc2ccccc2)CC(=O)N[C@@H](Cc2ccccc2)C(=O)N2CCC[C@@H]2C(=O)N[C@H](C)C(=O)N1C", "PAMPA (10^-6 cm/s)": "0.98"}
{"smiles": "CC(C)C[C@@H]1NC(=O)[C@H]2CCCN2C(=O)CN(Cc2ccccc2)C(=O)CN(Cc2ccccc2)C(=O)[C@@H](C)N(C)C(=O)[C@@H]2CCCN2C(=O)[C@H](Cc2ccccc2)NC1=O", "PAMPA (10^-6 cm/s)": "0.035"}
{"smiles": "CCCN1CC(=O)N[C@H](CC(C)C)C(=O)N(Cc2ccccc2)CC(=O)N2CCC[C@H]2C(=O)N(Cc2ccccc2)CC(=O)N[C@@H](Cc2ccccc2)C1=O", "PAMPA (10^-6 cm/s)": "1.5"}
{"smiles": "CC(C)C[C@H]1NC(=O)C[C@H](Cc2ccccc2)NC(=O)[C@@H]2CCCN2C(=O)[C@H](Cc2ccccc2)NC(=O)CN(Cc2ccccc2)C(=O)[C@H]2CCCN2C(=O)C[C@H](Cc2ccccc2)NC1=O", "PAMPA (10^-6 cm/s)": "1.2"}
{"smiles": "CC(C)C[C@@H]1NC(=O)[C@@H]2CCCN2C(=O)[C@H](CC(C)C)NC(=O)CN(Cc2ccccc2)C(=O)C[C@H](Cc2ccccc2)NC(=O)[C@H](Cc2ccccc2)NC1=O", "PAMPA (10^-6 cm/s)": "1.5"}
{"smiles": "CC(C)C[C@@H]1NC(=O)[C@@H]2CCCN2C(=O)C[C@H](Cc2ccccc2)NC(=O)CN(Cc2ccccc2)C(=O)[C@@H](C)NC(=O)[C@@H]2CCCN2C(=O)[C@H](Cc2ccccc2)NC1=O", "PAMPA (10^-6 cm/s)": "0.66"}
{"smiles": "CCCN1CC(=O)N(C)[C@H](CC(C)C)C(=O)N[C@H](CC(C)C)C(=O)N2CCC[C@H]2C(=O)N(Cc2ccccc2)CC(=O)N[C@@H](Cc2ccccc2)C1=O", "PAMPA (10^-6 cm/s)": "1.3"}
{"smiles": "C[C@@H]1NC(=O)[C@@H]2CCCN2C(=O)[C@H](Cc2ccccc2)NC(=O)CN(Cc2ccccc2)C(=O)[C@@H]2CCCN2C(=O)C[C@H](Cc2ccccc2)NC(=O)CN(Cc2ccccc2)C1=O", "PAMPA (10^-6 cm/s)": "0.39"}

Extract of 2 entries:

structure (SMILES)	PAMPA (10^-6 cm/s)
CCCN1CC(=O)N[C@H](CC(C)C)C(=O)N(Cc2ccccc2)CC(=O)N2CCC[C@H]2C(=O)N(Cc2ccccc2)CC(=O)N[C@@H](Cc2ccccc2)C1=O	1.5
CC(C)C[C@@H]1NC(=O)[C@H]2CCCN2C(=O)CN(Cc2ccccc2)C(=O)CN(Cc2ccccc2)C(=O)[C@@H](C)N(C)C(=O)[C@@H]2CCCN2C(=O)[C@H](Cc2ccccc2)NC1=O	0.035